# Key:
# Chains of the proteins cited; added tags and fusions are not shown. Lines headed by an entry give the natural chain unless they say otherwise; changes in a name come on top. Residues count along the entry.
# UniProt P14410, 2-1007 limits assumed: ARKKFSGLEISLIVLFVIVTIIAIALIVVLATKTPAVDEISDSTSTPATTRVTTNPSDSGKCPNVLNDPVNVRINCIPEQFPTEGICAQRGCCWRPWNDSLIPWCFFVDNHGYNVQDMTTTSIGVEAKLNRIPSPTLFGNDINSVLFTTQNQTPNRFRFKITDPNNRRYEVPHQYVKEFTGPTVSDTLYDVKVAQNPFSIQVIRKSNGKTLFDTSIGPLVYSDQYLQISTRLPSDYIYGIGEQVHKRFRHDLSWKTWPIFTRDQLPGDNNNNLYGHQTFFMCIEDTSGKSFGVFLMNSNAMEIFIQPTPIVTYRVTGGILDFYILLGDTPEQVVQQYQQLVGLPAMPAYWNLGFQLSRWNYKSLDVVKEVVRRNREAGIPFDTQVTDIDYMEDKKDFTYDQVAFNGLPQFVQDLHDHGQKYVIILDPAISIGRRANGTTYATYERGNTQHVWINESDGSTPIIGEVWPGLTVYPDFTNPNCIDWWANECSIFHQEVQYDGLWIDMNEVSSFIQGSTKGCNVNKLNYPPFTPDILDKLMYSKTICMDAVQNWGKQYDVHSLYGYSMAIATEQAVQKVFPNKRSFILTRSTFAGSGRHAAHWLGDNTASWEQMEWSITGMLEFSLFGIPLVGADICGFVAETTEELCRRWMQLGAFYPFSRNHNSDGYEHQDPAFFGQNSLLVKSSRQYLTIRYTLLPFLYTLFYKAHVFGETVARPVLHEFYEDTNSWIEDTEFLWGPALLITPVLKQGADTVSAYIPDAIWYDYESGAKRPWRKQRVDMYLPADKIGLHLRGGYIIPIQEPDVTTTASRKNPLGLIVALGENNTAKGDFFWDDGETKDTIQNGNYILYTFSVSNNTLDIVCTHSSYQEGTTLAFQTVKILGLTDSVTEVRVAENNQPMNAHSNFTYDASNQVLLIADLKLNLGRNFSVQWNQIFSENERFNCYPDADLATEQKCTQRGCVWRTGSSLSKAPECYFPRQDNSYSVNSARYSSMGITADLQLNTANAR
# UniProt P14410, 1008-1827 limits assumed: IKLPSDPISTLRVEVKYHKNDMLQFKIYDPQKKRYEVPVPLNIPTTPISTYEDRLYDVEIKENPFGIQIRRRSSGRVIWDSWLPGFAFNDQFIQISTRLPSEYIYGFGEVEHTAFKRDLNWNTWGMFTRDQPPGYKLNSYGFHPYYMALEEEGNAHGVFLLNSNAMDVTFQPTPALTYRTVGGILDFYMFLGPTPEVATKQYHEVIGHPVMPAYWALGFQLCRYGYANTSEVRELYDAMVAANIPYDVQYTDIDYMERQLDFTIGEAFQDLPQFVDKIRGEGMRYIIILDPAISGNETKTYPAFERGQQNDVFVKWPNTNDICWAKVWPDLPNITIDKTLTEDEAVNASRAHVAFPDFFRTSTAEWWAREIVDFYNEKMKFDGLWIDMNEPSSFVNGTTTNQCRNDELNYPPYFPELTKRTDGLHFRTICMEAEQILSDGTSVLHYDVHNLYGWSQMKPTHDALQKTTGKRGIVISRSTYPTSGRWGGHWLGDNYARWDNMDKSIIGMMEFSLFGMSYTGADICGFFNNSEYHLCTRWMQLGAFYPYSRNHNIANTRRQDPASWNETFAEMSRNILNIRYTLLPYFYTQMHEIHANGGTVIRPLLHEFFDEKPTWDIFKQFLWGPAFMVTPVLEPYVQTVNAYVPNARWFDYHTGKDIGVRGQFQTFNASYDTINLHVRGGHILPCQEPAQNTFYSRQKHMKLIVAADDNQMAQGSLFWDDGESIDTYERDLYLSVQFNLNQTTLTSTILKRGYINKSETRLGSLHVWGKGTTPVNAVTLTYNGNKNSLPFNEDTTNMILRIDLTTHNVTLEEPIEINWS
# UniProt O43451: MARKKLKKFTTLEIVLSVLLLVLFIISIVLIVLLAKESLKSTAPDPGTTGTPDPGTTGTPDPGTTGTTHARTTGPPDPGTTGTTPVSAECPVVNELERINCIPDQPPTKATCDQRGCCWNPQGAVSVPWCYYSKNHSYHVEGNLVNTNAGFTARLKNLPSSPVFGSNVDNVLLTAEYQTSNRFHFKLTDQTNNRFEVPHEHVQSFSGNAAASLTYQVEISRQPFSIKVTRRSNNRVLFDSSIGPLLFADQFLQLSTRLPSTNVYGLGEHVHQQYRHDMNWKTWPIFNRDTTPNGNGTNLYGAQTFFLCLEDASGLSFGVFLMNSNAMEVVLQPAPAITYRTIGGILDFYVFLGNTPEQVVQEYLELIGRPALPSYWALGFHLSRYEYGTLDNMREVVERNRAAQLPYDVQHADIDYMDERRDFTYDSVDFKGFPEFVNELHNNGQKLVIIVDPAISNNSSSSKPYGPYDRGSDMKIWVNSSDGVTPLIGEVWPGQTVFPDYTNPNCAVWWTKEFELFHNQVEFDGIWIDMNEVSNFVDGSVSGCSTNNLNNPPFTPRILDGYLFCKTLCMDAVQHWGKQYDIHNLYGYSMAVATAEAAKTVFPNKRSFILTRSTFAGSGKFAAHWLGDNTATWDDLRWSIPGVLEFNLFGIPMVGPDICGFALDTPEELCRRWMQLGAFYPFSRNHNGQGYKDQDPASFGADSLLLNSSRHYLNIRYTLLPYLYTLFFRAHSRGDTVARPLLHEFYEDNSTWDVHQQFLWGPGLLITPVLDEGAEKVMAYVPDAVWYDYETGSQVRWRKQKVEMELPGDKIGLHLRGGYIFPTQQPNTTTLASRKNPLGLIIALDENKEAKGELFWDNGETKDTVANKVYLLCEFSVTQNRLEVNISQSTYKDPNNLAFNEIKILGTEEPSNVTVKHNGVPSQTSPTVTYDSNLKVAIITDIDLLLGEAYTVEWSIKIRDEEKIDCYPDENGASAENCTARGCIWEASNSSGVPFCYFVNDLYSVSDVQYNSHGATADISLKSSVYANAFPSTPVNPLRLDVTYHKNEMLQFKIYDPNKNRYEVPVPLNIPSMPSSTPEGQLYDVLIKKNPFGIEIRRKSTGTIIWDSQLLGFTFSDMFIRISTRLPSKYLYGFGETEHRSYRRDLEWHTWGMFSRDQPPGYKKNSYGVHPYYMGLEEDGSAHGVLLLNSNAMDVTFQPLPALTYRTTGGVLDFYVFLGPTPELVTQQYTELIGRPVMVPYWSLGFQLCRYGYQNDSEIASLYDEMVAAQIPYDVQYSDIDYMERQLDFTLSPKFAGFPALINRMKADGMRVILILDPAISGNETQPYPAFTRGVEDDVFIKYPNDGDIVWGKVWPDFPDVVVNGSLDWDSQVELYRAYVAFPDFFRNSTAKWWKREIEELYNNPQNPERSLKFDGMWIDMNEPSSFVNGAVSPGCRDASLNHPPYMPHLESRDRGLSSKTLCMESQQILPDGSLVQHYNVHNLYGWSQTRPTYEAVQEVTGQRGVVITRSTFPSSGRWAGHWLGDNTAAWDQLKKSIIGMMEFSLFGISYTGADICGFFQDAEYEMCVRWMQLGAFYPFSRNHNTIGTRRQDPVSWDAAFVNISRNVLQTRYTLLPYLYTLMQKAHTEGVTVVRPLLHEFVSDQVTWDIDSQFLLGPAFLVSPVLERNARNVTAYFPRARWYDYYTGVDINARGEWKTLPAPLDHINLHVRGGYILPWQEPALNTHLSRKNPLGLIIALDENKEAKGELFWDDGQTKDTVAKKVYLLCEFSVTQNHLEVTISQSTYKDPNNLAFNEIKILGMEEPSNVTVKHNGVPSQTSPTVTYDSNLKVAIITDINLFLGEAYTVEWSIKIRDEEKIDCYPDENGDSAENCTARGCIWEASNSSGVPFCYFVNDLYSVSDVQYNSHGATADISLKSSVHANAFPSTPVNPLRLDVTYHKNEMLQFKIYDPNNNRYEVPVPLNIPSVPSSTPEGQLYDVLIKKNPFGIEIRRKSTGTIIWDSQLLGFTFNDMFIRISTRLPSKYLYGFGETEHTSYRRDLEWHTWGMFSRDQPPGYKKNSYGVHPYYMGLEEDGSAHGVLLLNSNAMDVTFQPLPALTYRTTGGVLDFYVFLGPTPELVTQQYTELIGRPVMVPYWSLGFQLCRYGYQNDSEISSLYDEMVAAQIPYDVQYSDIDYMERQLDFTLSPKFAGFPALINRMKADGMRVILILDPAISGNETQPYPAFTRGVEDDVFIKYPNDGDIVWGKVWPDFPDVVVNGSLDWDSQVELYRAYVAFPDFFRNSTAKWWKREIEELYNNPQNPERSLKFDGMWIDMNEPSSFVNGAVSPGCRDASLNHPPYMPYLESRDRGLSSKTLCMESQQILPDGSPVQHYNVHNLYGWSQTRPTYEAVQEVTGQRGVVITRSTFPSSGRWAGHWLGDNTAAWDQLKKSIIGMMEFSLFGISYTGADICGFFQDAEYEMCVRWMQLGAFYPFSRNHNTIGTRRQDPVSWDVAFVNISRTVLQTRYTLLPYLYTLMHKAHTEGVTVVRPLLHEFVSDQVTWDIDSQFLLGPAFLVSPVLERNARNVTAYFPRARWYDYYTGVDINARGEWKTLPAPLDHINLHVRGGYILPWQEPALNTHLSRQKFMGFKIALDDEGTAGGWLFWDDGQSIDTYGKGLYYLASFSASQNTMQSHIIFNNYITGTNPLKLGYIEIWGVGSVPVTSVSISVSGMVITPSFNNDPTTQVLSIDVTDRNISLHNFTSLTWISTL
# [1] = biological target: T1, Ceramide glucosyltransferase (Homo sapiens, UniProt Q16739)
# T1 sequence (Q16739 whole entry): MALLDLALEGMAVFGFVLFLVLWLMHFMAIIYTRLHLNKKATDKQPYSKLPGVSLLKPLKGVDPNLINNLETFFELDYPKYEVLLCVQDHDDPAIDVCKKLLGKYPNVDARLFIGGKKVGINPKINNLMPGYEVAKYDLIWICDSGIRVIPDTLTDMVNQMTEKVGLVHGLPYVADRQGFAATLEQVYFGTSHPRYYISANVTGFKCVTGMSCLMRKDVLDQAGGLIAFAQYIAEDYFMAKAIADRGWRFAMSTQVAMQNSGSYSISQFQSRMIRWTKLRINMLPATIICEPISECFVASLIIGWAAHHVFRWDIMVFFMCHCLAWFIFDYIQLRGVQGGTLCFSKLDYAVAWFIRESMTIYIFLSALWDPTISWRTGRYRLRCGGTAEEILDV
# [2] = biological target: Sucrase-isomaltase, intestinal (Homo sapiens, UniProt P14410); assay: Inhibition of intestinal sucrase (unknown origin)
# Maltase-glucoamylase = Maltase-glucoamylase (Homo sapiens, UniProt O43451); assay: Inhibition of intestinal maltase (unknown origin)
smiles,measurement,setting,value
C[C@H](OCCCCCN1C[C@H](O)[C@@H](O)[C@H](O)[C@H]1CO)c1ccc(-c2ccccc2)cc1,IC50,[1],70 nM
C[C@@H](OCCCCCN1C[C@H](O)[C@@H](O)[C@H](O)[C@H]1CO)c1ccc(-c2ccccc2)cc1,IC50,[1],60 nM
OC[C@@H]1[C@@H](O)[C@H](O)[C@@H](O)CN1CCCCCOCC12CC3CC(CC(C3)C1)C2,IC50,[2],600 nM
same,IC50,Maltase-glucoamylase,3000 nM
OC[C@H]1[C@@H](O)[C@H](O)[C@@H](O)CN1CCCCCOCC12CC3CC(CC(C3)C1)C2,IC50,[2],> 100000 nM
same,IC50,Maltase-glucoamylase,> 500000 nM

# Source: ChEMBL document CHEMBL3352260, “Identification and development of biphenyl substituted iminosugars as improved dual glucosylceramide synthase/neutral glucosylceramidase inhibitors” (J Med Chem, 2014)
